We go through eight compounds from patent publication US10533015B1, “Opioid receptor antagonist prodrugs” (Nirsum Laboratories, Inc., priority 2019, dated 2020).

The mark [1] stands for this setting: heating temp. 40 °C, obs. temp. 40 °C.
[2] abbreviates: heating temp. 60 °C, obs. temp. 25 °C.
The mark [3] stands for this setting: heating temp. 60 °C, obs. temp. 40 °C.

Like-named read-outs stand apart in the source and are kept apart here.

As to `C=C1CC[C@@]2(O)C3Cc4ccc(OC(=O)OCCCCCCCCCCCC)c5c4[C@@]2(CCN3CC2CC2)[C@H]1O5` [Compound 6, (4aS,7aS,12bS)-3-(cyclopropylmethyl)-4a-hydroxy-7-methylene-2,3,4,4a,5,6,7,7a-octahydro-1H-4,12-methanobenzofuro[3,2-e]isoquinolin-9-yl dodecyl carbonate], the “Approximate Solubility (mg/mL) in Excipient: Cottonseed oil” value (“Approximate Solubility … Cottonseed oil” below) under setting [1] was greater than 420.8 mg/mL.
With `C=C1CC[C@@]2(O)C3Cc4ccc(OC(=O)CCCCCCC/C=C/CCCCCCCC)c5c4[C@@]2(CCN3CC2CC2)[C@H]1O5` [Compound 15, (4aS,7aS,12bS)-3-(cyclopropylmethyl)-4a-hydroxy-7-methylene-2,3,4,4a,5,6,7,7a-octahydro-1H-4,12-methanobenzofuro[3,2-e]isoquinolin-9-yl (E)-octadec-9-enoate], the “Approximate Solubility (mg/mL) in Excipient: Sesame oil” value (from here on “Approximate Solubility … Sesame oil”) is on record as greater than 403.94 mg/mL under setting [2] and greater than 404 mg/mL under setting [3].
Consider `C=C1CC[C@@]2(O)C3Cc4ccc(OCOC(=O)OCCCCCCCCCCCCCC)c5c4[C@@]2(CCN3CC2CC2)[C@H]1O5` [Compound 25, (((4aS,7aS,12bS)-3-(cyclopropylmethyl)-4a-hydroxy-7-methylene-2,3,4,4a,5,6,7,7a-octahydro-1H-4,12-methanobenzofuro[3,2-e]isoquinolin-9-yl)oxy)methyl tetradecyl carbonate], for which, under setting [2], the “Approximate Solubility … Sesame oil” value is on record as greater than 404 mg/mL.
Regarding `C=C1CC[C@@]2(O)C3Cc4ccc(OCOC(=O)OCCCCCCCCCCCCCCCC)c5c4[C@@]2(CCN3CC2CC2)[C@H]1O5` [Compound 34, (((4aS,7aS,12bS)-3-(cyclopropylmethyl)-4a-hydroxy-7-methylene-2,3,4,4a,5,6,7,7a-octahydro-1H-4,12-methanobenzofuro[3,2-e]isoquinolin-9-yl)oxy)methyl hexadecyl carbonate], under setting [2], the “Approximate Solubility … Cottonseed oil” value is reported as greater than 404 mg/mL and the “Approximate Solubility … Sesame oil” value is recorded as greater than 405 mg/mL.
Take `C=C1CC[C@@]2(O)C3Cc4ccc(OC(=O)CCCCCCC/C=C\C/C=C\CCCCC)c5c4[C@@]2(CCN3CC2CC2)[C@H]1O5` [Compound 37, (4aS,7aS,12bS)-3-(cyclopropylmethyl)-4a-hydroxy-7-methylene-2,3,4,4a,5,6,7,7a-octahydro-1H-4,12-methanobenzofuro[3,2-e]isoquinolin-9-yl (9Z,12Z)-octadeca-9,12-dienoate]: the “Approximate Solubility … Cottonseed oil” value under setting [1] is greater than 405.3 mg/mL.
For `CCCCCCCCCCCCCCCCOC(=O)OCOc1ccc2c3c1O[C@H]1C(=O)CC[C@@]4(O)C(C2)N(CC2CC2)CC[C@]314` [Compound 47, (((4aS,7aR,12bS)-3-(cyclopropylmethyl)-4a-hydroxy-7-oxo-2,3,4,4a,5,6,7,7a-octahydro-1H-4,12-methanobenzofuro[3,2-e]isoquinolin-9-yl)oxy)methyl hexadecyl carbonate], the “Approximate Solubility … Sesame oil” value under setting [2] is given as greater than 404.9 mg/mL.
As to `CCCCCCCCCCCC(=O)OCOc1ccc2c3c1O[C@H]1C(=O)CC[C@@]4(O)C(C2)N(CC2CC2)CC[C@]314` [Compound 48, (((4aS,7aR,12bS)-3-(cyclopropylmethyl)-4a-hydroxy-7-oxo-2,3,4,4a,5,6,7,7a-octahydro-1H-4,12-methanobenzofuro[3,2-e]isoquinolin-9-yl)oxy)methyl dodecanoate], under setting [2], the “Approximate Solubility … Sesame oil” value is greater than 404.8 mg/mL.
With `CCCCC/C=C\C/C=C\CCCCCCCC(=O)Oc1ccc2c3c1O[C@H]1C(=O)CC[C@@]4(O)C(C2)N(CC2CC2)CC[C@]314` [Compound 53, (4aS,7aR,12bS)-3-(cyclopropylmethyl)-4a-hydroxy-7-oxo-2,3,4,4a,5,6,7,7a-octahydro-1H-4,12-methanobenzofuro[3,2-e]isoquinolin-9-yl (9Z,12Z)-octadeca-9,12-di.enoate], the “Approximate Solubility … Cottonseed oil” value under setting [3] is listed as greater than 403.8 mg/mL. Also, the “Approximate Solubility (mg/mL) in Excipient: Ethanol” value (Ethanol, heating temp. 60 °C, obs. temp. 40 °C) is reported as greater than 404 mg/mL.
